System: cholinesterase
Assay: Micro spot test using 1,3-dicyclohexylcarbodiimide with M-272 detector ticket test for cholinesterase inhibitors
Conditions: M-272 enzyme disc; control (analyte level=0) contains a white spot

C(=NC1CCCCC1)=NC1CCCCC1
Cholinesterase inhibition (in words): weak cholinesterase inhibitor

— patent US6403329B1, “Methods of detecting methylphosphonic compounds” (dated 2002)
